Data published in ChEMBL document CHEMBL1124148 (J Med Chem, 1988).
pIC50: −log10 of the molar value.

System: L1210 ( R81)
Test: Inhibitory concentration against growth of L1210/R81 cell line
Type: functional, cell-based
Details: Mus musculus

Nc1nc(N)c2nc(CNc3ccc(C(=O)NC(CCCNC(=O)c4ccccc4C(=O)O)C(=O)O)cc3)cnc2n1 (stereo unspecified)
pIC50: 4.28
